Biological target: T1, Histone-lysine N-methyltransferase NSD2 (Homo sapiens, UniProt O96028)
T1 sequence (O96028 whole entry): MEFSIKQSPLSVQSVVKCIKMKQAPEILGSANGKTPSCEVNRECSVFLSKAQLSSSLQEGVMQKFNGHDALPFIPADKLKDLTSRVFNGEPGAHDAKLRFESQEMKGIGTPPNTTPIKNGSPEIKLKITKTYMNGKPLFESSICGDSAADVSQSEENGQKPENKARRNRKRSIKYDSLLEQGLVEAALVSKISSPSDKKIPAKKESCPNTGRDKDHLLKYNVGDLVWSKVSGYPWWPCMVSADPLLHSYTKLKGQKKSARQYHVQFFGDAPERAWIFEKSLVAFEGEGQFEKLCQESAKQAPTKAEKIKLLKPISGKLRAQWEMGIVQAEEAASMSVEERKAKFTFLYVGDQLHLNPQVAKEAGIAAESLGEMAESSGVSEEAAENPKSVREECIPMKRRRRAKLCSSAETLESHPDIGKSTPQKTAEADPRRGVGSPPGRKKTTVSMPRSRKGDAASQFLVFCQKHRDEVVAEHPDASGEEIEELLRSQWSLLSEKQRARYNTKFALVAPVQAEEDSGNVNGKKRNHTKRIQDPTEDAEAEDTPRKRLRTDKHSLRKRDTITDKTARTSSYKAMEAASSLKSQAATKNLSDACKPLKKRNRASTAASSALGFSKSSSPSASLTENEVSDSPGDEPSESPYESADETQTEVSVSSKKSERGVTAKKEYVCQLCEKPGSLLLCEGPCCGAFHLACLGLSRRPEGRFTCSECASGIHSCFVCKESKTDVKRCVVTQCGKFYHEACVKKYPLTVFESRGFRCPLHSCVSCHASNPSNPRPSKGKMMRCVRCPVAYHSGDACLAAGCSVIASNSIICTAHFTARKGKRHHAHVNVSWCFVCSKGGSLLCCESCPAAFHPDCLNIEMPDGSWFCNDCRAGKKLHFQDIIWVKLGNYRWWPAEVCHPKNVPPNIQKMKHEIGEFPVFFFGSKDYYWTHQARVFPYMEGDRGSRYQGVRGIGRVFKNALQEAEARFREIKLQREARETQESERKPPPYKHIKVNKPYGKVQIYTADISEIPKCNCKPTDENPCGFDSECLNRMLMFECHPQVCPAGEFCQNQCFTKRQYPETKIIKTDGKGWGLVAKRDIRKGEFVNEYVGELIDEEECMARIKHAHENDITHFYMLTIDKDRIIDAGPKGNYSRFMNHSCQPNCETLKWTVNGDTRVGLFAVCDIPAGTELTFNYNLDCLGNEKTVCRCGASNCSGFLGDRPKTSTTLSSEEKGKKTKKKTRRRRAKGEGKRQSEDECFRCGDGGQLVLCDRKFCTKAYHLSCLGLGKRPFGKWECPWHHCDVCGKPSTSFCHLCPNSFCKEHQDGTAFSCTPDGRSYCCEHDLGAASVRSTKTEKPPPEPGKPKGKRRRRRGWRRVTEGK
Test: Inhibition of recombinant human N-terminal GST-tagged NSD2 CD (941 to 1240 residues) expressed in Escherichia coli using SAM as substrate in presence of nucleosomes by AlphaLISA method

Structure (SMILES): Nc1ncnc2c1ncn2[C@@H]1O[C@H](CSCC[C@H](N)C(=O)O)[C@@H](O)[C@H]1O [S-ADENOSYLHOMOCYSTEINE]
- IC50: 39.1 µM

Source: ChEMBL document CHEMBL4825702, “5-Aminonaphthalene derivatives as selective nonnucleoside nuclear receptor binding SET domain-protein 2 (NSD2) inhibitors for the treatment of multiple myeloma” (Eur J Med Chem, 2021)
